Source: patent US20220213167A1 (published 2022)
Values belong to the binder of their own block, whether it stands above or below them.

Target: T1, gp100, also known as premelanosome protein (PMEL) peptide on HLA-A*02:01 (human)
T1 peptide: KTWGQYWQV
Assay: multimer staining

- binding result: recognises
B1: TCR clone 5 (TCR, V domains shown)
Valpha: GEDVEQSLFLSVREGDSSVINCTYTDSSSTYLYWYKQEPGAGLQLLTYIFSNMDMKQDQRLTVLLNKKDKHLSLRIADTQTGDSAIYFCAEDTDKLIFGTGTRLQVFP
Vbeta: EAGVAQSPRYKIIEKRQSVAFWCNPISGHATLYWYQQILGQGPKLLIQFQNNGVVDDSQLPKDRFSAERLKGVDSTLKIQPAKLEDSAVYLCASSLGGGELFFGEGSRLTVL

- binding result: recognises
B2: TCR clone 4 (TCR, V domains shown)
Valpha: GEDVEQSLFLSVREGDSSVINCTYTDSSSTYLYWYKQEPGAGLQLLTYIFSNMDMKQDQRLTVLLNKKDKHLSLRIADTQTGDSAIYFCAEIANRDDKIIFGKGTRLHILP
Vbeta: DTEVTQTPKHLVMGMTNKKSLKCEQHMGHRAMYWYKQKAKKPPELMFVYSYEKLSINESVPSRFSPECPNSSLLNLHLHALQPEDSALYLCASSQAVNTGELFFGEGSRLTVL
